Reference: ChEMBL document CHEMBL1133545, “Inhibition of monoamine oxidases by functionalized coumarin derivatives: biological activities, QSARs, and 3D-QSARs” (J Med Chem, 2000)

The chains behind the UniProt entries cited, without tags or fusion partners.
UniProt P19643, whole entry: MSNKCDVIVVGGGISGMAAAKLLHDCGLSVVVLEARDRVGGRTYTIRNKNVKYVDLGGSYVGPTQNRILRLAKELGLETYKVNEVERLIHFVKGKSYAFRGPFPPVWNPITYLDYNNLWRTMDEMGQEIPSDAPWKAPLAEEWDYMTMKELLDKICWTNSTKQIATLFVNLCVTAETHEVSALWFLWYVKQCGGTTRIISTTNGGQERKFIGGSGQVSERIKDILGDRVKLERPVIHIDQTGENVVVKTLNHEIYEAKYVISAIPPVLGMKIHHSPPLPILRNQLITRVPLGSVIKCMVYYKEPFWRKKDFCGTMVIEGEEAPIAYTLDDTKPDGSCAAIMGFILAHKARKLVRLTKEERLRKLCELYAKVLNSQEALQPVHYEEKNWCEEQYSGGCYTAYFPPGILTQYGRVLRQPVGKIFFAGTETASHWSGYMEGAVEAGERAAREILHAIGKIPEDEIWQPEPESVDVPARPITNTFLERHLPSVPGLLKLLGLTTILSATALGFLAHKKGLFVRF

Target: Amine oxidase [flavin-containing] B (Rattus norvegicus, UniProt P19643)

- IC50: 0.251 µM
SMILES: CC(=O)Nc1cccc(COc2ccc3c(C)c(C)c(=O)oc3c2)c1
